# Earlier results, collected in article PMC6161897, “The novel NADPH oxidase 4 selective inhibitor GLX7013114 counteracts human islet cell death in vitro” (PLoS ONE, 2018).
# Biological target: T1, Nox1 (Homo sapiens, UniProt Q9Y5S8)
# T1 construct: host or cells: CHO
# T1 sequence (Q9Y5S8 1-564): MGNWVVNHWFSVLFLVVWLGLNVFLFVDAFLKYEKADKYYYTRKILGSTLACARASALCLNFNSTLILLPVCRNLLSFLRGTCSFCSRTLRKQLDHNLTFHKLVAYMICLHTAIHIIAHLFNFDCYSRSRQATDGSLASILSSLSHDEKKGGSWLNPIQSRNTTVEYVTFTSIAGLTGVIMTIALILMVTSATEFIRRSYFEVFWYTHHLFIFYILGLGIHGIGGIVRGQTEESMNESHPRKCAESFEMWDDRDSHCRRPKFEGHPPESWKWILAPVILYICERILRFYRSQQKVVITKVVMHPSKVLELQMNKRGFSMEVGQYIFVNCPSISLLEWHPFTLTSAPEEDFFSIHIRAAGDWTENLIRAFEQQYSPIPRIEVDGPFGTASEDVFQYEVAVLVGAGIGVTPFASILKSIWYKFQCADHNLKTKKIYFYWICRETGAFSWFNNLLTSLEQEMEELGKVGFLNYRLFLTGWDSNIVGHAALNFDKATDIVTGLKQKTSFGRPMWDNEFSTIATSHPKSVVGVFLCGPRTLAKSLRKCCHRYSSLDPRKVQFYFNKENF
# T1 sequence (P13498 2-195 partner limits assumed): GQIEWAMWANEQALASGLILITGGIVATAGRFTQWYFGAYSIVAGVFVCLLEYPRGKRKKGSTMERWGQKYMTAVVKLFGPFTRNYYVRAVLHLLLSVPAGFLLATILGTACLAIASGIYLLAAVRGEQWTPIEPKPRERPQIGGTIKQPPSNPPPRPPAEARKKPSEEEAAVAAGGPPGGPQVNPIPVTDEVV
# Details: read-out: Nox1 IC50; cited from earlier work
structure (smiles),measurement,value
"c1ccc2c(c1)[I+]c1ccccc1-2 [DPI, diphenyleneiodoniumchloride]",IC50,0.2 µM
